Measured values from publication PMC7770057 (Journal of medicinal chemistry, 2020).
Like-named read-outs stand apart in the source and are kept apart here.

System: pMEK and pERK
Conditions: for time to maximum ERK phosphorylation inhibition / time to significant ERK phosphorylation inhibition: 0.1 μM; for inhibition of MEK and ERK phosphorylation: 24 h, concentration-dependent

For `Cc1ncsc1-c1ccc([C@H](C)NC(=O)[C@@H]2C[C@@H](O)CN2C(=O)[C@@H](NC(=O)CCCCCCCCCCN(C)CCCONC(=O)c2ccc(F)c(F)c2Nc2ccc(I)cc2F)C(C)(C)C)cc1` [Compound 24, (2S,4R)-1-((S)-20-(tert-Butyl)-1-(3,4-difluoro-2-((2-fluoro-4-iodophenyl)amino)phenyl)-7-methyl-1,18-dioxo-3-oxa-2,7,19-triazahenicosan-21-oyl)-4-hydroxy-N-((S)-1-(4-(4-methylthiazol-5-yl)phenyl)ethyl)pyrrolidine-2-carboxamide], the “time to maximum ERK phosphorylation inhibition” value (HT-29 cells) was at most 8 h, the “time to significant ERK phosphorylation inhibition” value (HT-29 cells) was at most 2 h and the “inhibition of MEK and ERK phosphorylation” value (HT-29 cells) was “inhibited phosphorylation of MEK and ERK”. The “inhibition of MEK and ERK phosphorylation” value (SK-MEL-28 cells) was “inhibited phosphorylated MEK and ERK levels”.

In the case of `Cc1ncsc1-c1ccc([C@H](C)NC(=O)[C@@H]2C[C@@H](O)CN2C(=O)[C@@H](NC(=O)CCCCCCCCCCCNCCCCONC(=O)c2ccc(F)c(F)c2Nc2ccc(I)cc2F)C(C)(C)C)cc1` [Compound 27, (2S,4R)-1-((S)-22-(tert-Butyl)-1-(3,4-difluoro-2-((2-fluoro-4-iodophenyl)amino)phenyl)-1,20-dioxo-3-oxa-2,8,21-triazatricosan-23-oyl)-4-hydroxy-N-((S)-1-(4-(4-methylthiazol-5-yl)phenyl)ethyl)pyrrolidine-2-carboxamide], the “time to maximum ERK phosphorylation inhibition” value (HT-29 cells) is reported as at most 8 h, the “time to significant ERK phosphorylation inhibition” value (HT-29 cells) is reported as at most 2 h and the “inhibition of MEK and ERK phosphorylation” value (HT-29 cells) is reported as “inhibited phosphorylation of MEK and ERK”. For the same molecule, the “inhibition of MEK and ERK phosphorylation” value (SK-MEL-28 cells) was “inhibited phosphorylated MEK and ERK levels”.

In the case of `O=C1CCC(N2C(=O)c3ccc(NCCOCCOCCOCCOCCOCCNCCCONC(=O)c4ccc(F)c(F)c4Nc4ccc(I)cc4F)cc3C2=O)C(=O)N1` (stereo not shown) [Compound 50, N-((1-((2-(2,6-Dioxopiperidin-3-yl)-1,3-dioxoisoindolin-5-yl)amino)-3,6,9,12,15-pentaoxa-18-azahenicosan-21-yl)oxy)-3,4-di-fluoro-2-((2-fluoro-4-iodophenyl)amino)benzamide], the “inhibition of MEK and ERK phosphorylation” value (HT-29 cells) is reported as “inhibited MEK and ERK phosphorylation” and the “inhibition of MEK and ERK phosphorylation” value (SK-MEL-28 cells) is reported as “inhibited MEK and ERK phosphorylation”.
